{
  "sequences": {"note": "Protein sequences, listed by entry. Tags and fused reporters are not part of them.", "UniProt A6YIH7, entry or part of it": "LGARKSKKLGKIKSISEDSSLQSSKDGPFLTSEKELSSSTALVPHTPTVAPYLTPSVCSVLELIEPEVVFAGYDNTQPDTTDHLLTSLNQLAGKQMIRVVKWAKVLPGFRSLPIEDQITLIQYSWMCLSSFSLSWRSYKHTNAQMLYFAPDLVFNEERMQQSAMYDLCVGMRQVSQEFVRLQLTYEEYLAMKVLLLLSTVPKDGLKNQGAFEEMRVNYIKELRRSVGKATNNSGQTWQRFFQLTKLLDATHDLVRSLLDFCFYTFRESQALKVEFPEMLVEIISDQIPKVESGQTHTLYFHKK"},
  "source": "paper PMC12636382",
  "about": "“Human and zebrafish mineralocorticoid receptors reporter cell assays to assess the activity of chemicals” (iScience, 2025)",
  "molecular_target": "zebrafish MR (zfMR) (Danio rerio, UniProt A6YIH7)",
  "experiment": "UG5LN-GAL4-zfMR luciferase reporter cell assay (agonism and antagonism tests)",
  "assay_type": "cell-based",
  "procedure": "The U2OS cells used to establish the MR reporter cell lines were obtained from and verified by ECACC (UK Health Security Agency, Porton Down, Salisbury, UK). The strategy used has been described previously to establish other NR-based cell lines.[42] First, the different pSG5-GAL4(DBD)-MRs (LBD) and (GAL4RE)5βGlob-Luc-SVNeo plasmids were tested by transient transfections in U2OS. Then, the UG5LN-GAL4-hMR and UG5LN-GAL4-zfMR clonal cells were generated in two steps. The first step was to establish clonal UG5LN cells by a stable transfection of U2OS cells, considered as steroid receptor negative, with the plasmid (GAL4RE)5βGlob-Luc-SVNeo. […]\nTo perform the reporter gene assay, cells were seeded in 96-wells white transparent culture plates (Greiner bio-one 655098CellStar; Dutscher, Brumath, France) at a density of 60,000 cells per well in 150 μL of culture medium and incubated at 37°C and 5% CO2 for 24 h. […] The luminescence signal was monitored in intact live cells for 2 s per well using a MicroBeta Wallac luminometer (PerkinElmer, Courtaboeuf, France). […]\nThe quantification and statistical analysis are integral parts of the software used (GraphPad Prism 10, GraphPad Software Inc). […]",
  "note": "pEC50: −log10 of the molar value.",
  "data": [
    {"compound": "C[C@@H]1C[C@H]2[C@@H]3CCC4=CC(=O)C=C[C@]4(C)[C@@]3(F)[C@@H](O)C[C@]2(C)[C@@]1(O)C(=O)CO", "note": "[dexamethasone]", "values": [
      {"measurement": "pEC50", "value": 8.57}
    ]}
  ]
}
